Results from US20050014734A1, “Modulation of interleukin-10 by DHEA” (Genovate Biotechnology Co., Ltd., priority 2003, published 2005).
Several values for one entry are separate records, joined by “and”; a condition that tells them apart may be missing. Equal values may be shown once.

Tested on: testosterone
Assay: Hormone determination: serum testosterone in SLE study
Type: in vivo, human
Details: 200 mg/day DHEA, 24 weeks

C[C@]12CC[C@H](O)CC1=CC[C@@H]1[C@@H]2CC[C@]2(C)C(=O)CC[C@@H]12 [DHEA, dehydroepiandrosterone]
Testosterone change at last visit, mean (baseline mean 29, P < 0.05 vs placebo): 46.6 ng/dL and 47 ng/dL
Testosterone change at last visit, median (baseline median 28): 39.5 ng/dL and 40 ng/dL
